Assay [1] concerns the target T1, 5-hydroxytryptamine receptor 2A (Homo sapiens, UniProt P28223). Nature of the assay: Agonist activity at human 5-HT2A receptor expressed in HEK293 cells assessed as calcium flux at 10 uM by FLIPR assay. Type of assay: functional, cell-based.
Assay [2] has as its target T2, 5-hydroxytryptamine receptor 2C (Homo sapiens, UniProt P28335). Nature of the assay: Agonist activity at 5HT2C receptor (unknown origin) relative to control.
In assay [3] the target is T2, 5-hydroxytryptamine receptor 2C. The assay is described as follows: Agonist activity at human 5-HT2C receptor expressed in HEK293 cells assessed as calcium flux by FLIPR assay relative to 5-HT. Type of assay: functional, cell-based.
The target of assay [4] is 5-hydroxytryptamine receptor 2B (Homo sapiens, UniProt P41595). The assay is described as follows: Agonist activity at human 5-HT2B receptor expressed in HEK293 cells assessed as calcium flux by FLIPR assay relative to 5-HT. Type of assay: functional, cell-based.
Assay [5] concerns the target T1, 5-hydroxytryptamine receptor 2A. The assay is described as follows: Agonist activity at human 5-HT2A receptor expressed in HEK293 cells assessed as calcium flux by FLIPR assay relative to 5-HT. It counts as functional, cell-based.
The species named for another assay is Homo sapiens. Nature of the assay: Selectivity ratio of EC50 for human 5-HT2B receptor to EC50 for human 5HT2C receptor.

By UniProt entry, the sequences of proteins in these tests, tags left out. Where a name states a change or a piece, a line headed by the entry shows the natural chain unless it says otherwise.
UniProt P28223, whole entry: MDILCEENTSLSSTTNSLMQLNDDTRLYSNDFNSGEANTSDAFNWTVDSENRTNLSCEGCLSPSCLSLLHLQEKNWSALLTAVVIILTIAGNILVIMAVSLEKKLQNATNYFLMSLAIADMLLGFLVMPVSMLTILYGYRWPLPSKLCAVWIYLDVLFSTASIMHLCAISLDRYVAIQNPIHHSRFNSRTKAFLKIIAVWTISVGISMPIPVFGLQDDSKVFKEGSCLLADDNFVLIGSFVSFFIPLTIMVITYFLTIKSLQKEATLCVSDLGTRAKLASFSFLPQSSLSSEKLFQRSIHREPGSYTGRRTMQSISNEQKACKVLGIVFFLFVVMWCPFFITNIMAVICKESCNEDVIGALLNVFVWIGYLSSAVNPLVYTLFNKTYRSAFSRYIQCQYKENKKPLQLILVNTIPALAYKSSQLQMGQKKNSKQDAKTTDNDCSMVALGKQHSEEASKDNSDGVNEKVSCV
UniProt P28335: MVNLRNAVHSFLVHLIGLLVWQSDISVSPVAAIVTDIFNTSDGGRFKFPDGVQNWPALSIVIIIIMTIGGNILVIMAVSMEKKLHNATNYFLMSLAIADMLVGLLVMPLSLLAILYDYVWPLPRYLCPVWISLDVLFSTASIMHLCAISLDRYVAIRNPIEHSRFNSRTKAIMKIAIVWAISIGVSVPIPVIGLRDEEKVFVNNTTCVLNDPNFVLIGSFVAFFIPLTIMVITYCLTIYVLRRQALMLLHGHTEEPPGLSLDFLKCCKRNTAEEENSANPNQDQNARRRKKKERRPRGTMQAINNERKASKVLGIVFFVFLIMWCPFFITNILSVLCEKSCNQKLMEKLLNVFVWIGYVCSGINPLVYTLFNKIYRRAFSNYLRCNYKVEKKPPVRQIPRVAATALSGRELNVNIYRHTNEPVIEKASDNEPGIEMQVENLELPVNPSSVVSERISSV
UniProt P41595, whole entry: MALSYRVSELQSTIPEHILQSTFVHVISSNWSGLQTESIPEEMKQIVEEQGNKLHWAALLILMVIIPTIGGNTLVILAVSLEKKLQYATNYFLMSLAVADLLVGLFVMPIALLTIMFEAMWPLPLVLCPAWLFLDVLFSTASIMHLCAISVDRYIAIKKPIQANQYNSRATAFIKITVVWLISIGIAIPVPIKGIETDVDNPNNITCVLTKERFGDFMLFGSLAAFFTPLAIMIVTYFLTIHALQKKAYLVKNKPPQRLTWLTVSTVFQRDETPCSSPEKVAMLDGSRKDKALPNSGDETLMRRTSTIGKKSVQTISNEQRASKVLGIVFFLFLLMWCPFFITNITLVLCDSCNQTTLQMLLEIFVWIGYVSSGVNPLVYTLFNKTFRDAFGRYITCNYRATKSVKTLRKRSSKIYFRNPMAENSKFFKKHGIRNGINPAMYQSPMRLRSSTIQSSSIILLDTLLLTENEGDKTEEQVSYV

Each structure is given as a SMILES string. The source made the active and inactive calls. The calls are words filed in the database; no cut-off is given here.

Turning to `CCCCOc1ccc(Cl)cc1[C@@H]1C[C@H]1CN`, the result in assay [1] was inactive.

For the compound `c1cc2c3c(c1)[C@H]1CCC[C@H]1CN3CCNC2`, the Emax in assay [2] amounted to 100%.

As to `CC(C)Oc1ccc(Cl)cc1[C@H]1C[C@@H]1CN`, the maximal effect (Emax) came out at 86% in assay [3], 37% in assay [4] and 19% in assay [5]. In addition, the Ratio EC50 in the assay listed under Homo sapiens was 11.

For the compound `CCCCOc1ccc(Cl)cc1[C@H]1C[C@@H]1CN`, in assay [1], the result was inactive.

With `CC(C)Oc1ccc(Cl)cc1[C@@H]1C[C@H]1CN`, the Emax in assay [3] worked out at 37%; in assay [4] it was 19%. For the same compound, the result in assay [1] was inactive.

Source of the values: ChEMBL document CHEMBL3414471 (J Med Chem, 2015).
